Apparent affinities of Ab-95 variants for a coronavirus HR2 peptide

The measurements come from Engelhart et al. 2022 (doi:10.1038/s41597-022-01779-4) through the FLAb antibody collection.

Target: peptide PDVDLGDISGINAS, taken from heptad repeat 2 (HR2) of SARS-CoV-2 spike.

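In library AAYL52, one, two or three CDR residues were substituted; doubles and triples were drawn at random. AlphaSeq pools MATa yeast showing the antibodies with MATalpha yeast showing the peptide. Mating (16 h, 30 °C) was followed by selection of diploids and sequencing of their barcodes. Each replicate has its own calibration line, from reference interactions of the BCL2 family. Mating was done three times.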

Parent scFv Ab-95: VH joined to VL by a 15-residue (Gly4Ser)3 linker. Changes lie in the light chain CDRs alone.
VH: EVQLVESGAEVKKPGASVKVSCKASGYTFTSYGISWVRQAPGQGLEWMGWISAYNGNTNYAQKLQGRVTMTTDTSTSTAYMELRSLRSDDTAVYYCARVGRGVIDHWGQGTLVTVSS
VL: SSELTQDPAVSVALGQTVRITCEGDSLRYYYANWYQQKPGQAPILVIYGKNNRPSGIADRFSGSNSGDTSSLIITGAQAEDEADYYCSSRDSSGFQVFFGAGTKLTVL

Positions count from residue 1 of the parent VL; L27Q puts Q in place of L.
This list gathers variants with a substitution at L27 (VL, numbered from residue 1).
Values are apparent Kd, the geometric mean of the replicates that gave a signal; lower means stronger binding.
"nd" means that the variant was in the library but no mating with the target was seen in any replicate; the authors take this as a sign of poor binding, and no number exists.
Background: pairings of library AAYL52 with three empty control strains gave a value in 28% of cases (median 8.2 µM, 5th percentile 800 nM). Values in that range, when seen in few replicates, are hard to tell from nonspecific mating.

Variant L27Q+N51M+D91W showed 7.2 µM (2 of 3 replicates). Variant S26M+L27Q+S89H gave 330 nM (1 of 3 replicates). With L27V+G49N+F95I the result was 40 µM (1 of 3 replicates). With L27Y+A32W+S92R the result was 17 µM (3 of 3 replicates). Variant L27H+R53H+R90W gave 8.7 µM (1 of 3 replicates). With L27S+N51P+Q96Y the result was 9.3 µM (3 of 3 replicates). Variant L27H+Y29C+R53Y showed nd (0 of 3 replicates). Variant E23H+L27P showed 510 nM (3 of 3 replicates). Variant E23V+L27P+R90D gave 190 µM (1 of 3 replicates).

Variant L27R+Y30F+G49W gave 310 µM (1 of 3 replicates). With G24D+L27S+S92A the result was 2.2 µM (3 of 3 replicates). With L27F+G49Y+P54F the result was 15 µM (1 of 3 replicates). With S26T+L27G+D91C the result was 1.9 µM (1 of 3 replicates). Variant L27A+R53M+D91P gave 86 µM (2 of 3 replicates). Variant L27F+D91S+S92G gave 2.6 µM (2 of 3 replicates). For L27E+G94S, the assay gave 5.9 µM (3 of 3 replicates). Variant L27E+R28K gave 3.1 µM (3 of 3 replicates). Variant L27E+Y29G+Y30I gave 290 nM (3 of 3 replicates).

Variant L27D+S88A+F98A showed nd (0 of 3 replicates). With L27P+F95K+F98P the result was 660 nM (1 of 3 replicates). For L27P+S88R+Q96M, the assay gave 170 µM (1 of 3 replicates). For L27P+N52G+S93Y, the assay gave 9.0 µM (3 of 3 replicates). With D25Y+L27C+F95W the result was 15 µM (1 of 3 replicates). For L27S+N33D+S93W, the assay gave 96 nM (3 of 3 replicates). For E23S+L27G+G49A, the assay gave 26 µM (2 of 3 replicates). With L27A+N33Q+D91S the result was 8.1 µM (3 of 3 replicates). With L27W+N33Q+F95Q the result was 120 µM (1 of 3 replicates).

With L27T+N51P the result was nd (0 of 3 replicates). Variant L27T+R28A+F98E showed 28 µM (2 of 3 replicates). Variant L27I+R28V+S88F showed 2.1 µM (2 of 3 replicates). Variant L27A+N51K+S88E gave nd (0 of 3 replicates). Variant L27T+Y29A+Q96S gave 15 µM (1 of 3 replicates). Variant L27T+G49T+S93C showed 5.7 µM (3 of 3 replicates). With L27R+N33E+P54D the result was 17 µM (2 of 3 replicates). With L27K+S88D+G94N the result was 15 µM (1 of 3 replicates). Variant L27M+D91F+S93Q gave 750 nM (2 of 3 replicates).

Variant L27N+Y31N+F98D gave 220 nM (3 of 3 replicates). Variant D25F+L27D+Y30T showed 710 nM (3 of 3 replicates). For L27M+Y30L+Q96P, the assay gave 1.4 µM (3 of 3 replicates). Variant L27C+F95W+V97E gave nd (0 of 3 replicates). With L27K+F95P the result was 240 µM (1 of 3 replicates). Variant L27S+Y29N+K50H showed 1.5 µM (3 of 3 replicates). For L27Y+S92K+F98M, the assay gave nd (0 of 3 replicates). Variant L27K+S89A+D91L gave nd (0 of 3 replicates). Variant L27Q+Y29W+A32G showed 240 nM (3 of 3 replicates).

Variant L27I+S89M+S92L gave 17 µM (1 of 3 replicates). Variant L27I+R90K+V97M gave 44 µM (2 of 3 replicates). For L27T+R28F+S55K, the assay gave nd (0 of 3 replicates). Variant L27D+N33D+G94D gave 25 µM (1 of 3 replicates). With L27P+G94V+V97E the result was nd (0 of 3 replicates). With L27Q+R53F+S88L the result was 5.2 µM (1 of 3 replicates).

From the list, the first 7 with no signal in any replicate:

| changes | Kd | replicates with signal |
|---|---|---|
| L27H+Y29C+R53Y | nd | 0 of 3 |
| L27D+S88A+F98A | nd | 0 of 3 |
| L27T+N51P | nd | 0 of 3 |
| L27A+N51K+S88E | nd | 0 of 3 |
| L27C+F95W+V97E | nd | 0 of 3 |
| L27Y+S92K+F98M | nd | 0 of 3 |
| L27K+S89A+D91L | nd | 0 of 3 |